## Ab-91 heavy chain CDR variants: yeast mating affinities

The target is the same throughout: PDVDLGDISGINAS, from the HR2 region of SARS-CoV-2 spike.

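The parent was found by panning a naive human phage display library on the peptide. In library AAYL51, one, two or three CDR residues were substituted; doubles and triples were drawn at random. The assay is AlphaSeq: two haploid yeast populations carry antibody and antigen on their surface. The frequency of each diploid, read from paired DNA barcodes, reflects how well the two displayed proteins bind. Each replicate has its own calibration line, from reference interactions of the BCL2 family. Mating was done three times.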

Ab-91 is the parent antibody, in scFv form: VL, then a (GGGGS)3 linker, then VH. The light chain is unchanged in all variants.
VL: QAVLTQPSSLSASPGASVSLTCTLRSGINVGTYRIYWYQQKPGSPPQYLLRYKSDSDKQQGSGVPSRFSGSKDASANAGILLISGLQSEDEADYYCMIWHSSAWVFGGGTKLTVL
VH: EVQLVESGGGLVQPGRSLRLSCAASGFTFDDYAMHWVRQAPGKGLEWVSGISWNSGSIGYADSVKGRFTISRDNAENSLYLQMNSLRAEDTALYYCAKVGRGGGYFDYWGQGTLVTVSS

The parent's heavy chain CDRs are GFTFDDYAMH, GISWNSGSIGYADSVK, VGRGGGYFDY; each variant's own CDRs replace them letter for letter. Scale: log10 of Kd in nM, estimated from mating counts; low values are strong binders. Averages over replicates are reported, and they cover detected replicates only. Where no diploid with the target was found in any replicate, the entry reads "nd": below detection, most likely a poor binder, though not proof of it.

| CDR-H1 | CDR-H2 | CDR-H3 | mean log10 Kd (nM) | replicates with signal |
|---|---|---|---|---|
| GFTFVDYAMH | GISWMSGSIGYADSVK | VGEGGGYFDY | 4.67 | 2/3 |
| GFTFDDYAMH | GISWNRGSIGYADSLT | VGRGGGYFDY | 2.98 | 1/3 |
| GFTGDDYAMH | GISWNCGSIGYADSGK | VGRGGGYFDY | nd | 0/3 |
| GFRFDDYAMH | GISWNSGSIGYCDSVK | VGRGGGYDDY | nd | 0/3 |
| GFTFDDYAMH | GISWNSGSIGYAMSVK | VGRGGGHFDT | nd | 0/3 |
| GFTFDDYAMH | GISLNMGSIGYADSVK | VGRHGGYFDY | nd | 0/3 |
| GFTFDDYAMH | GISWNSGSIGYADQVK | VGRGCGYNDY | 0.91 | 3/3 |
| GITFDDYAFH | GISWNSGSIGYADYVK | VGRGGGYFDY | 2.25 | 3/3 |
| GFTFDDYANH | GISWNSGSIGYARSVK | VYRGGGYFDY | nd | 0/3 |
| GFTFDDYAMH | GISWNSGKIGYADSVK | VGRWGGPFDY | 5.08 | 3/3 |
| GFTFDDYAPH | GISWNYASIGYADSVK | VGRGGGYFDY | 6.57 | 1/3 |
| GKTFDDYAMH | GISWNSGSIAYADSVK | VGRGGGYFDY | 3.37 | 1/3 |
| GFTFDGWDMH | GISWNSGSIGYADSVK | VGRGGGYFDY | nd | 0/3 |
| GFTFDDYAMH | GISANSGSIGYADSVK | VGRGWGYFDV | 4.98 | 1/3 |
| GFTFDDYAMH | GISWDSGSIGYEDSVK | VGRGIGYFDY | 5.53 | 2/3 |
| GFTFDDYAMV | GMSWNSGSIGYADSVK | LGRGGGYFDY | nd | 0/3 |
| GFTFDDYAMY | GISVNSGSIGWADSVK | VGRGGGYFDY | 3.50 | 1/3 |
| GFTFDDMAMS | GISWNSGSIGYNDSVK | VGRGGGYFDY | 4.45 | 2/3 |
| GFTFDDYAMH | GISMNSGSIYYAVSVK | VGRGGGYFDY | 5.45 | 2/3 |
| GFTFDDYAMH | GISWNSLSIGYADSVK | VVRGGGHFDY | 3.99 | 1/3 |
| GFTFDDYANH | GISWNSGSIGYADSVK | VGRGGPYFDY | 3.35 | 1/3 |
| GFTFDDYAMH | GISWNSESIGYADSVK | VGKGGGSFDY | nd | 0/3 |
| GFTFDDYDMH | GISWNIGSIGYADSMK | VGRGGGYFDY | 3.74 | 2/3 |
| GFGFDDYAMH | GISWNSGHSGYADSVK | VGRGGGYFDY | 3.74 | 3/3 |
| GFTFDDYAMH | TNSWNSGSIGYGDSVK | VGRGGGYFDY | nd | 0/3 |
| GFTFDDYAYH | GISNNSGSIGYADSDK | VGRGGGYFDY | nd | 0/3 |
| CFTFDDYAMH | GISWNSGRIGYANSVK | VGRGGGYFDY | 4.09 | 1/3 |
| GFTFDDYAMH | GISWESGSIGYADSVK | DGRGTGYFDY | nd | 0/3 |
| GFTFDDYWMH | DISWNSGSIGYADSVK | VGRGGGYFDM | nd | 0/3 |
| GFTFDDYAMH | GISWNSGSIGYAQSDK | VSRGGGYFDY | nd | 0/3 |
| GFTFDDYAMH | GISWNSGSIGIADSVK | VGAGGGYFDY | 1.80 | 3/3 |
| GFTFDDYAMH | GISWNSGSRGYADSVK | VGKGGYYFDY | 2.39 | 3/3 |
| GFTFDDYNMH | GISCNSGSIGYADSVK | VGRGGGYFDY | 4.81 | 2/3 |
| GFTCDDYAMH | GISWNSGSIGYADPVK | VGNGGGYFDY | nd | 0/3 |
| GFTFDDYAWH | GISANSGSIGYADSVK | VGRGGNYFDY | 0.86 | 3/3 |
| GFTFDDYAMH | GISWNSGSNMYGDSVK | VGRGGGYFDY | 5.53 | 2/3 |
| GFTFDDYAMH | GYSWLSGSDGYADSVK | VGRGGGYFDY | 4.95 | 2/3 |
| GFTFDDYAEH | GISVNSGSIGYADSVK | VGRGPGYFDY | nd | 0/3 |
| GFTFDDYAMH | GISWNSGSIGYDDSVC | VGRRGGYFDY | 3.74 | 1/3 |
| GFTFDDYAMH | GISWNSESIGHADSVK | QGRGGGYFDY | 4.64 | 2/3 |
| GFTFDDYAMH | GISWNSGSIGYADSVK | RGPGGGYFDM | 5.47 | 1/3 |
| GFTFPDYAMH | GESWNSGSIGYADSVK | VGRGGGYFDT | nd | 0/3 |
| GFTFDVYAMG | KISWNSGSIGYADSVK | VGRGGGYFDY | 4.14 | 1/3 |
| GFTFDDYAPH | GISWNSGSIQYADSVK | VGRGGGYFDY | 4.75 | 2/3 |
| TFTFDDYAMH | GISWNSGCIGYADSVK | VGRGGGEFDY | nd | 0/3 |
| GFTFDDYAMH | GISWNSGSIGYADEVK | VGRGGGYTDN | 5.25 | 1/3 |
| GFTFDDYAMH | GISWNSGSIGIADSQK | VGHGGGYFDY | nd | 0/3 |
| GFTFQDYGMH | GISWNSGSIGYADSVC | VGRGGGYFDY | nd | 0/3 |
| GFTFDDYFMH | HIAWNSGSIGYADSVK | VGRGGGYFDY | 5.09 | 2/3 |
| GFTFDDYAWH | GISWNSGSIGYADSVK | VGRGGPYFDE | nd | 0/3 |
| GFTFDDYAMT | GISWNSGSIGYADSVK | VGHAGGYFDY | nd | 0/3 |
| GHTFDTYAMH | GIGWNSGSIGYADSVK | VGRGGGYFDY | 4.67 | 2/3 |

As a blank, each scFv also met three strains without target: over library AAYL51, 21% of these pairings were detected, typically at 4.54 and seldom below 3.26. For reference, the parent read 1.86 as the reference entry and 0.88 as a member of this library.

The measurements come from Engelhart et al. 2022 (doi:10.1038/s41597-022-01779-4) through the FLAb antibody collection.